This assay concerns the target Acetylcholinesterase (Homo sapiens) (UniProt P22303).

Protein sequences, listed by entry. Tags and fused reporters are not part of them. Lines headed by an entry give the natural chain unless they say otherwise; changes in a name come on top.
UniProt P22303: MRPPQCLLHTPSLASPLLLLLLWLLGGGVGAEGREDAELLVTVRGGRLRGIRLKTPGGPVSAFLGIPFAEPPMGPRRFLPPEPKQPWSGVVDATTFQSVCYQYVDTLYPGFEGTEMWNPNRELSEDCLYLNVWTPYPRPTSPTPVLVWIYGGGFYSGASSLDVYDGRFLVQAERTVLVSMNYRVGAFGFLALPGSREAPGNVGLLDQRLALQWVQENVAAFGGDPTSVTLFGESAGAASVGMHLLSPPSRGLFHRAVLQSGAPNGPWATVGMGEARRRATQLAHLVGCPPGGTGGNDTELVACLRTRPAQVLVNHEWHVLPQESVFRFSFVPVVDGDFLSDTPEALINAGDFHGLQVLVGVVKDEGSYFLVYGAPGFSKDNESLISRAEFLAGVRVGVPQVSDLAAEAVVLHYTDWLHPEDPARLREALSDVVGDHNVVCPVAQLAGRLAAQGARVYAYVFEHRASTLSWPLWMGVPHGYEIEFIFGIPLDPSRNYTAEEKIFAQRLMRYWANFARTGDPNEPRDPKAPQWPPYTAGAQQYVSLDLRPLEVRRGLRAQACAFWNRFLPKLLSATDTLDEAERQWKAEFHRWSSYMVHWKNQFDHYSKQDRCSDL

In turn, `Fc1ccc2c(NCCCCCCCNc3c4c(nc5cc(F)ccc35)CCCC4)c3c(nc2c1)CCCC3` had a logRA of 2.74.

(Values after ChEMBL document CHEMBL1140601, “Quantitative structure-activity relationship (QSAR) of tacrine derivatives against acetylcholinesterase (AChE) activity using variable selections” (Bioorg Med Chem Lett, 2007).)
